Assay results: PMC10946398 (Journal of Medicinal Chemistry, 2024)

Assay: parallel artificial membrane permeability assay
Assay type: in vitro ADME
Settings: for permeation increase (Log): increase of 18c (PAMPA −LogPe […]) over the listed compound

propranolol [Prop., reference compound]
PAMPA −LogPe (100 μM, phosphate buffer pH 6.4, 17 h, 37 °C, 150 rpm, triplicates): 5.41 ± 0.22 and 5.41 | permeation increase (Log): 0.78 Log | permeation increase (Log) (listed as propanolol): about 0.78 Log

Values joined by “and” are separate entries in the source; they are usually repeats but may differ in a detail not shown here. Identical values can stand only once.
